Laboratory results: PMC5053573, “Structure-Based Design of Tetrahydroisoquinoline-7-carboxamides as Selective Discoidin Domain Receptor 1 (DDR1) Inhibitors” (Journal of Medicinal Chemistry, 2016)

Sequences of proteins named here, by UniProt entry; tags and fusion partners are left off. A change or cut given only in a name is not applied to a line headed by its entry.
UniProt Q08345: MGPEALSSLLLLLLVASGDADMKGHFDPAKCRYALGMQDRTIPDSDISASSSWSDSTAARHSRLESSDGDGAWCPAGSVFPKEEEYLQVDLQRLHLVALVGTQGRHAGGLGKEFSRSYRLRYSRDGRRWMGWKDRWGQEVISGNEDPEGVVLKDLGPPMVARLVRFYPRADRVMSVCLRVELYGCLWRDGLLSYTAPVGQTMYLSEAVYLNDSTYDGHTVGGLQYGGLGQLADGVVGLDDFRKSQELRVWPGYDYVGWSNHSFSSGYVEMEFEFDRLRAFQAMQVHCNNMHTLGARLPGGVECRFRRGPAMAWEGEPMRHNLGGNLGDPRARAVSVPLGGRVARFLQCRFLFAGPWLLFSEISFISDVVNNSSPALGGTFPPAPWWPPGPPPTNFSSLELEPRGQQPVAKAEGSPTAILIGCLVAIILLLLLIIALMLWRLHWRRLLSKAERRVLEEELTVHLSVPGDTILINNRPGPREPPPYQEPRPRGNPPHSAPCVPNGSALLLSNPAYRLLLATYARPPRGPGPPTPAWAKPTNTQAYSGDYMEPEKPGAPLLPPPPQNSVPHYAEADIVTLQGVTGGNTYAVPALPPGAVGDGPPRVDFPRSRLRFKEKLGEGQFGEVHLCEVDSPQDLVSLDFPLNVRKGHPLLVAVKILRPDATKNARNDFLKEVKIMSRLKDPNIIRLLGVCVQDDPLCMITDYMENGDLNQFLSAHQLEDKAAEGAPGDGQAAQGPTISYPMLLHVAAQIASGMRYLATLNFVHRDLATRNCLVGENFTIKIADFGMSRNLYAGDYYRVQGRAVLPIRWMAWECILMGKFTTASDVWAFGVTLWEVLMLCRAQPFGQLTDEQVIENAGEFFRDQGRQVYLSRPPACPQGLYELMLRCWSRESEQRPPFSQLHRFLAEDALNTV

Assays:
[1] = system: DDR1 activation in lung cancer cell line H1299; experiment: Western blot of DDR1 activation in H1299 cells; type: cell-based; conditions: designated concentrations for 6 hours, 1.0 µM for indicated time
[2] = system: DDR1-mediated signaling in primary human lung fibroblasts; experiment: Western blot analysis of DDR1 signaling in primary human lung fibroblasts; type: cell-based; conditions: 24 h treatment
[3] = system: Panc-1 pancreatic cancer cells; experiment: Liquid colony forming assay; conditions: Panc-1 cells, 1.5-2 weeks
[4] = system: BLM-induced pulmonary fibrosis; experiment: BLM-induced pulmonary fibrosis mouse model; type: in vivo, C57BL/6 mice; conditions: oral 10 and 50 mg/kg BID for 2 weeks
[5] = system: panel of 468 kinases (including 403 nonmutated kinases); conditions: 1000 nM, 403 non-mutant kinases
[6] = molecular target: DDR1 (Homo sapiens, UniProt Q08345); conditions: binder
[7] = Pharmacokinetics study in ICR mice; type: in vivo; conditions: male, mouse, whole blood, iv, 1 mg/kg, read-out: CL (L/hr/kg) in mice (converted)
[8] = system: Panc-1 pancreatic cancer cells; experiment: Wound healing (scratch) assay; conditions: Panc-1 cells

Cc1cn(-c2cc(NC(=O)c3ccc4c(c3)CN(c3cncnc3)C[C@@H]4C)cc(C(F)(F)F)c2)cn1 [Compound 6j]
activation of DDR1, Western blot [1]: inhibits activation of DDR1 in the dose.dependent and the time –dependent manner
activation of DDR1 (phospho-DDR1), Western blot [2]: dose-dependently suppressed; also recorded: inhibited DDR1-mediated signaling in a concentration-dependent manner
downstream signaling intermediate p38 (phospho-p38), Western blot [2]: dose-dependently suppressed
colony formation [3]: reduces colony formation
BLM-induced pathological changes of lung (H&E, Masson's trichrome) [4]: prevented these BLM-induced pathological changes in a dose-dependent manner; also recorded: prevents BLM-induced lung fibrosis
hydroxyproline content of lung [4]: dose-dependent suppression
Number of Hits S(1) [5]: 4
Number of Hits S(10) [5]: 5
Number of Hits S(35) [5]: 9
%Ctrl @ 1000nM [6]: 0.25%
clearance [7]: 0.8 L/h/kg
migration of cancer cells (scratch assay) [8]: migration of cancer cells

Entries after “also recorded” stand apart in the source; their conditions may differ.
